This is an account of results in ChEMBL document CHEMBL1133532.

Some compounds may have been tested in ways that are not shown here.

The nature of this data set: Partition coefficient (logP). To be noted: octanol/water.
As to `O=C(OC1CCCN(Cc2ccccc2)C1)C(O)(c1ccccc1)c1ccccc1` (stereo not given), the logP was found to be 5.02.

The compound `CC(C)N1CCC(OC(=O)C(O)(c2ccccc2)c2ccccc2)CC1` displayed a logP of 3.59.

As to `O=C(OC1CCCN(Cc2ccc(F)cc2)C1)C(O)(c1ccccc1)c1ccccc1` (stereo not given), the logP was determined as 5.17.

With `O=C(OC1CCN(CCc2ccc([N+](=O)[O-])cc2)CC1)C(O)(c1ccccc1)c1ccccc1`, the logP is 4.46.

Compound `CC(CF)N1CCC(OC(=O)C(O)(c2ccccc2)c2ccccc2)C1` (stereo not given) displayed a logP of 3.35.

For the compound `CCN1CCC(OC(=O)C(O)(c2ccccc2)c2ccccc2)C1` (stereo not given), the logP came to 3.15.

For `O=C(OC1CCN(Cc2ccc(F)cc2)CC1)C(O)(c1ccccc1)c1ccccc1`, the logP is 4.79.

`O=C(OC1CCCNC1)C(O)(c1ccccc1)c1ccccc1` (stereo not given) registered a logP of 2.89.

Compound `CC(CF)N1CCC(OC(=O)C(O)(c2ccccc2)c2ccccc2)CC1` (stereo not given) had a logP of 3.43.

`CCCN1CCCC(OC(=O)C(O)(c2ccccc2)c2ccccc2)C1` (stereo not given) came in with a logP of 4.08.

`O=C(OC1CCN(Cc2ccc(F)cc2)C1)C(O)(c1ccccc1)c1ccccc1` (stereo not given) came in with a logP of 4.72.

In turn, `O=C(OC1CCN(CCF)C1)C(O)(c1ccccc1)c1ccccc1` (stereo not given) displayed a logP of 2.98.

`O=C(OC1CCCN(CCCF)C1)C(O)(c1ccccc1)c1ccccc1` (stereo not given): the logP worked out at 3.51.

As for `O=C(OC1CCN(Cc2ccccc2)C1)C(O)(c1ccccc1)c1ccccc1` (stereo not given), the logP was 4.56.

For `CC(CF)N1CCCC(OC(=O)C(O)(c2ccccc2)c2ccccc2)C1` (stereo not given), the logP was found to be 3.8.

`O=C(OC1CCN(CCc2ccccc2)CC1)C(O)(c1ccccc1)c1ccccc1` gave a logP of 4.9.

`O=C(OC1CCN(CCCF)C1)C(O)(c1ccccc1)c1ccccc1` (stereo not given) displayed a logP of 3.06.

`O=C(OC1CCCN(CCF)C1)C(O)(c1ccccc1)c1ccccc1` (stereo not given) returned a lipophilicity (logP) of 3.43.

With `O=C(OC1CCN(Cc2ccc([N+](=O)[O-])cc2)CC1)C(O)(c1ccccc1)c1ccccc1`, the logP was 4.2.

`O=C(OC1CCN(CCCF)CC1)C(O)(c1ccccc1)c1ccccc1` showed a logP of 3.14.

On to `O=C(OC1CCNCC1)C(O)(c1ccccc1)c1ccccc1`, for which the logP was found to be 2.51.

Take `O=C(OC1CCN(CCF)CC1)C(O)(c1ccccc1)c1ccccc1`: the logP was found to be 3.06.

`CCN1CCC(OC(=O)C(O)(c2ccccc2)c2ccccc2)CC1` returned a logP of 3.23.

`O=C(OC1CCN(Cc2ccccc2)CC1)C(O)(c1ccccc1)c1ccccc1` yielded a lipophilicity (logP) of 4.64.

As to `O=C(OC1CCNC1)C(O)(c1ccccc1)c1ccccc1` (stereo not given), the logP turned out to be 2.44.
